Assay results: paper PMC8915576 (Frontiers in Pain Research, 2021)

System: MOPr-VACC inhibition in DRG neurons
Assay: Chronic desensitization of MOPr-VACC inhibition in DRG neurons
Assay type: cell-based, mouse
Details: pre-incubation 10-240′, NKTR-181 30 μM, fentanyl 1 μM, morphine 10 μM, oxycodone 10 μM

**Q.** For `COc1ccc2c3c1O[C@H]1C(=O)CC[C@@]4(O)[C@@H](C2)N(C)CC[C@]314` [Oxycodone, oxycodone], which “chronic desensitization (DAMGO 1 μM VACC inhibition after pre-incubation)” value is on record?
**A.** The value was “neither morphine nor oxycodone induced desensitization at any stage”.

**Q.** How did the “chronic desensitization (DAMGO 1 μM VACC inhibition after pre-incubation)” value turn out when `C[C@@H](NC(=O)[C@@H](N)Cc1ccc(O)cc1)C(=O)NCC(=O)N(C)[C@@H](Cc1ccccc1)C(=O)NCCO` [DAMGO, [D-Ala^2, N-MePhe^4, Gly-ol]-enkephalin] was run?
**A.** Its value is “induced desensitization after 30, 60, 120, and 240′”.

**Q.** How did the “chronic desensitization (DAMGO 1 μM VACC inhibition after pre-incubation)” value turn out when `CN1CC[C@]23c4c5ccc(O)c4O[C@H]2[C@@H](O)C=C[C@H]3[C@H]1C5` [Morphine, morphine] was run?
**A.** Its value is “neither morphine nor oxycodone induced desensitization at any stage”.
